# Yeast mating assay 2: variants of the scFv Ab-95

Antigen: PDVDLGDISGINAS, a 14-residue peptide of the SARS-CoV-2 spike HR2 region.

Each scFv is VH, the linker GGGGSGGGGSGGGGS, VL, as in the parent Ab-95, and differs from it in the CDRs of the light chain only.
VH: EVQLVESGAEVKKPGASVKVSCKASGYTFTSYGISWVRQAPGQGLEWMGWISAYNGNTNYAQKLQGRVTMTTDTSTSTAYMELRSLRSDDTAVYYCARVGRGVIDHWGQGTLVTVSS
VL: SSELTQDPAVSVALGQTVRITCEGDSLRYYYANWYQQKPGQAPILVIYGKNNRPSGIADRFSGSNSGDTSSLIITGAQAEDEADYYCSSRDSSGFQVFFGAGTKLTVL

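The library (AAYL52) carries one to three amino acid substitutions per variant, with no insertions or deletions. In AlphaSeq, yeast of one mating type display the scFv and yeast of the other type display the target. Binding brings cells together so that they mate, and sequencing counts the barcode pairs among the diploids. The ratio of observed to expected reads was calibrated, replicate by replicate, on BCL2-family standards whose Kd was known from biolayer interferometry. Mating was done three times.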

Positions count from residue 1 of the parent VL; G24Q puts Q in place of G. The read-out is the apparent dissociation constant on a log10 scale (nM): the lower, the stronger. "nd" marks a missing value. The strain was present, yet no cells mated with the target were sequenced in that replicate, which points to weak or no binding. Three control strains display no target. For library AAYL52, 28% of the pairings with them gave a signal, with a median of 3.91 and one signal in twenty below 2.90, so weak values seen in few replicates may be background. The control count says in how many pairings with the empty strains this scFv gave a signal, with their mean in brackets. Parent in this assay: reference entry 2.31, copy in this library 2.25.

changes,"log10 Kd, replicates",control signals
G24Q+Y30K+S88I,4.31 / nd / nd,0 of 9
R28E+A32Q+D91I,nd / nd / nd,1 of 9 (5.55)
R90S+S92A+G94M,3.88 / nd / 3.39,1 of 9 (3.23)
E23N+A32Y+S92N,nd / nd / nd,2 of 9 (3.69)
R28L+Y30M+P54V,2.44 / 2.25 / 2.37,7 of 9 (4.05)
G24Y+S26H+G94T,4.49 / 3.81 / nd,2 of 9 (3.72)
R28W+Y30V+G49E,3.04 / nd / 3.44,4 of 9 (3.78)
N52H+S88G+V97M,4.44 / 4.47 / nd,3 of 9 (3.84)
E23G+G24Y+V97P,4.31 / nd / 3.68,0 of 9
Y31G+R53G+S92L,4.55 / 4.52 / 4.16,1 of 9 (4.09)
Y30T+R53W+F98Q,nd / 3.79 / nd,3 of 9 (3.75)
A32H+R53K,4.40 / 4.63 / 3.37,4 of 9 (3.86)
N51R+V97P,nd / nd / 3.38,1 of 9 (3.20)
G24L+N33F+R90M,nd / 3.73 / nd,3 of 9 (4.68)
N33A+R53Q+S89P,3.74 / nd / nd,0 of 9
E23P+G24L+N52I,3.44 / 3.30 / nd,5 of 9 (3.85)
G24D+R28P+F95Y,3.23 / 3.08 / nd,2 of 9 (3.77)
R53T+P54L+S88K,nd / nd / nd,0 of 9
S26I+Y31D+A32W,5.25 / 6.03 / nd,3 of 9 (3.71)
L27T+Y30V+N51F,nd / nd / 4.13,3 of 9 (3.68)
R28F+A32I+R53V,1.05 / 1.26 / 0.92,4 of 9 (4.22)
G49I+K50M,nd / nd / nd,1 of 9 (3.93)
E23V+Y30W+F98N,1.91 / 3.80 / 2.32,0 of 9
E23Q+R28K+G94M,3.36 / 2.30 / 3.49,6 of 9 (3.80)
G24C+D25M+N33Y,nd / nd / nd,1 of 9 (3.15)
A32K+P54H+G94W,3.69 / 6.09 / nd,3 of 9 (4.81)
G24Y+S88L+G94W,nd / 2.04 / nd,1 of 9 (3.25)
Y31M+A32S,2.36 / 2.59 / 2.15,2 of 9 (3.54)
Y29Q+G49F+V97Q,3.22 / 5.25 / 4.03,1 of 9 (4.71)
S88T+F95C+F98M,2.75 / 3.18 / 3.23,4 of 9 (4.28)

4 of these entries, quoted again:

changes,"log10 Kd, replicates",control signals
Y31M+A32S,2.36 / 2.59 / 2.15,2 of 9 (3.54)
R28E+A32Q+D91I,nd / nd / nd,1 of 9 (5.55)
S88T+F95C+F98M,2.75 / 3.18 / 3.23,4 of 9 (4.28)
R28F+A32I+R53V,1.05 / 1.26 / 0.92,4 of 9 (4.22)

From the AlphaSeq antibody data of Engelhart et al. 2022 (doi:10.1038/s41597-022-01779-4), copy in the FLAb collection.